# Paper PMC6329626 (British Journal of Pharmacology, 2018)
# Sequences of proteins named here, by UniProt entry; tags and fusion partners are left off.
# UniProt P24462, whole entry: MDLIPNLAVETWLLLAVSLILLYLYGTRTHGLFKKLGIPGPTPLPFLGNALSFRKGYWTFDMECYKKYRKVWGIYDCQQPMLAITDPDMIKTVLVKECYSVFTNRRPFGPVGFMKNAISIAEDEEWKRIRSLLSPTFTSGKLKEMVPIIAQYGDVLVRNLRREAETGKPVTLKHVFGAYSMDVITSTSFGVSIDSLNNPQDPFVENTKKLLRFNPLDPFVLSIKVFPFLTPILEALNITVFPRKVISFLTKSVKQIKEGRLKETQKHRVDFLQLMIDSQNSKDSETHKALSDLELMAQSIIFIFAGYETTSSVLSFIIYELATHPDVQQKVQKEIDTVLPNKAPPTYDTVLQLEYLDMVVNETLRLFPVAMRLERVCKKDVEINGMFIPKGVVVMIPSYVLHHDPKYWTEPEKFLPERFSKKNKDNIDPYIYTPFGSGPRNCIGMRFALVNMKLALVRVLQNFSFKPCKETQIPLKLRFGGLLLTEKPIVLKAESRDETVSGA
# Target: recombinant CYP3A7 (Homo sapiens, UniProt P24462)
# Assay: Enzyme kinetics of flucloxacillin hydroxylation by CYP3A7 Supersomes
# Format: in vitro ADME
# Details: 100 nM CYP3A7 Supersomes, 10 min
structure (smiles),measurement,value
Cc1onc(-c2c(F)cccc2Cl)c1C(=O)N[C@@H]1C(=O)N2[C@@H]1SC(C)(C)[C@@H]2C(=O)O [flucloxacillin],K M of 5′-HM-FLX formation,65 ± 8 µM
